## Yeast mating assay B: variants of the scFv Ab-14

Source: Li et al. 2023 (doi:10.1038/s41467-023-39022-2), MIT Lincoln Laboratory and A-Alpha Bio; data file from the FLAb repository.

Binding partner: SARS-CoV-2 spike HR2 peptide, sequence PDVDLGDISGINAS.

Each scFv is VH, the linker GGGGSGGGGSGGGGS, VL, as in the parent Ab-14, and differs from it in the CDRs of the heavy chain only.
VH: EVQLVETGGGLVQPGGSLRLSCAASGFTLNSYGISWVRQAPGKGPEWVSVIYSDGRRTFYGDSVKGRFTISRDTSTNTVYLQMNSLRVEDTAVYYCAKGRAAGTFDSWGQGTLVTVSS
VL: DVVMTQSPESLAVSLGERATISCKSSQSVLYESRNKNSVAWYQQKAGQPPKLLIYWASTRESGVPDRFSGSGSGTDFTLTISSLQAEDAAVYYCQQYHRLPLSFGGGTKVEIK

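The starting antibody came from a phage panning campaign against this peptide. These sequences belong to a second round, designed from the earlier measurements on random variants of the parent. Group labels follow the data file (Ctrl: baseline library sampled from a position-specific scoring matrix, with some repeated check sequences; GPLM: also part of the Gaussian process libraries; HC: hill climbing; a sequence that several methods proposed may carry one label only). AlphaSeq pools MATa yeast showing the antibodies with MATalpha yeast showing the peptide. Pairs that bind mate more often; barcode pairs of the diploids are counted by sequencing. Scores were corrected for input abundance and mapped to Kd with protein pairs of known affinity run in the same pool. Mating was done six times.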

Changes read parent residue, position, new residue, counted from the first residue of the VH shown. The read-out is the apparent dissociation constant on a log10 scale (nM): the lower, the stronger. Averages over replicates are reported, and they cover detected replicates only. A pair that was not seen in that replicate is written "nd"; this usually means weak binding, but a binder can also be missed.

changes,group,"replicates, log10 nM",mean log10 Kd (nM),control signals
F27I/G61Q/F105S,Ctrl,nd nd nd nd nd nd,nd,0 of 18
F59A/S63D/R100K,Ctrl,0.77 0.33 0.96 0.41 1.07 1.17; 0.20 0.18 0.75 0.52 0.79 1.02; 0.87 1.34 0.45 1.12 0.94 1.35; 0.91 1.18 1.03 0.68 1.03 0.74,0.83,2 of 72 (2.03)
G26R/T28N/N30K/S31E/R100Q,Ctrl,nd nd nd nd nd 2.15,2.15,2 of 18 (2.22)
R56V/T58K/G61S,Ctrl,0.80 0.62 0.59 0.78 0.59 0.34,0.62,0 of 18
A101V/F105P/D106F/S107V,Ctrl,nd nd nd nd nd nd,nd,0 of 18
T28Q/R56L,Ctrl,nd nd nd nd nd nd,nd,0 of 18
S35H/G61E/A101F,Ctrl,0.20 0.74 0.71 0.06 -0.03 0.83,0.42,0 of 18
S31E/I34V/G61I/R100A/A101E,Ctrl,nd nd nd nd nd nd,nd,0 of 18
I34T/R56Y/F105G,Ctrl,nd nd nd nd nd nd,nd,1 of 18 (1.00)
G61Q/R100A,Ctrl,nd 0.97 1.30 2.27 0.54 1.12,1.24,0 of 18
R56M/G61T/K65A/A101N,Ctrl,nd nd 0.14 0.42 1.19 1.38,0.79,0 of 18
S53A/A102E,Ctrl,nd nd 2.16 2.61 nd 3.15,2.64,0 of 18
F59M/D62G/G99V/R100T/A101T/T104I,Ctrl,nd nd nd nd nd nd,nd,0 of 18
S31D/F59A/G61M/A101L,Ctrl,0.75 0.06 0.18 0.24 0.22 0.32,0.29,0 of 18
G61S/R100A/D106K,Ctrl,nd nd nd nd nd nd,nd,0 of 18
A101D/A102D/D106E,Ctrl,nd nd nd nd nd nd,nd,1 of 18 (1.87)
G61S/A102S,Ctrl,nd nd nd nd nd 2.08,2.08,0 of 18
S31E/D106T,Ctrl+GPLM_HC,nd nd nd nd nd nd; nd nd nd nd nd nd,nd,0 of 36
T28A/S53A/K65R,Ctrl,0.57 0.30 -0.01 0.32 0.46 0.44,0.35,0 of 18
I51M/A101I,Ctrl,-0.04 nd 0.17 nd 0.63 nd,0.25,1 of 18 (0.30)
R100K/A101G,Ctrl,nd nd nd nd nd nd,nd,0 of 18
T28D/A101E/A102S/T104R/S107V,Ctrl,nd 1.22 0.88 1.44 0.78 1.30,1.12,2 of 18 (2.53)
R100H/A101W/T104R,Ctrl,nd nd nd nd nd nd,nd,2 of 18 (2.06)
T28K/G61K/G103K,Ctrl,nd nd nd nd nd nd,nd,0 of 18
N30E/S53A/G103A,Ctrl,2.35 1.86 1.63 2.42 0.80 0.72,1.63,1 of 18 (1.28)
T28H/L29V/Y32F/T104D,Ctrl,nd nd nd nd nd nd,nd,0 of 18
F105V,Ctrl,nd nd nd nd nd nd,nd,0 of 18
G61K/S63K,Ctrl,nd nd 1.21 nd 2.91 nd,2.06,0 of 18
G61H/S107M,Ctrl,nd nd 1.53 1.66 nd nd,1.60,0 of 18
F59A/G61M/A101F/D106R,Ctrl,nd nd nd nd nd nd,nd,0 of 18
R100F/T104C/S107N,Ctrl,nd nd nd nd nd nd,nd,0 of 18
T28W/R57K/G61K/K65D,Ctrl,nd 1.80 0.58 1.47 1.78 nd,1.41,0 of 18
T28S/G61S/G99N/D106V/S107N,Ctrl,nd nd nd 2.13 nd nd,2.13,0 of 18
S53A/R56Y/D106S,Ctrl,nd nd nd nd nd nd,nd,0 of 18
L29V/G103A,Ctrl,nd nd nd nd nd nd,nd,0 of 18
S31K/I34S,Ctrl,nd nd nd nd nd nd,nd,0 of 18
T28D/S31E/G33T/R56K,Ctrl,nd nd nd nd nd nd,nd,1 of 18 (1.69)
F27A/R56K/R100K,Ctrl,nd 2.28 nd 1.17 nd nd,1.72,0 of 18
T28C/S31E/I34W,Ctrl,nd nd nd 2.39 nd nd,2.39,0 of 18
K65V/A102S/S107T,Ctrl,nd nd nd nd nd nd,nd,1 of 18 (2.09)
G61T/G103D/T104H,Ctrl,nd nd nd nd nd nd,nd,0 of 18
N30E/G61S/T104V,Ctrl,nd nd nd nd 2.79 nd,2.79,1 of 18 (2.00)
R56L/G61S/R100G/A101Q/A102P/D106F/S107L,Ctrl,nd nd nd nd nd nd,nd,0 of 18
F27Y/S53F/A101N/D106H,Ctrl,nd nd nd nd nd nd,nd,0 of 18
F27D,Ctrl,nd 1.98 nd nd nd nd,1.98,0 of 18
T28N/S31K/I34S/A102M,Ctrl,nd nd nd nd nd nd,nd,0 of 18
Y32Q/S53A/R56K/G103D,Ctrl,nd nd nd nd nd nd,nd,0 of 18
T58V/G61S/S107K,Ctrl,1.69 1.72 1.53 1.25 2.50 1.93,1.77,0 of 18
T104M,Ctrl,nd nd nd nd nd nd,nd,0 of 18
F27N/T28E/L29I/S53A/R56G/F105G,Ctrl,nd nd nd nd nd nd,nd,0 of 18
T28D/G61D/A101I/D106N,Ctrl,nd 1.85 1.35 1.52 2.52 1.60,1.77,1 of 18 (2.58)

The opening 5 entries, copied out:

changes	group	replicates, log10 nM	mean log10 Kd (nM)	control signals
F27I/G61Q/F105S	Ctrl	nd nd nd nd nd nd	nd	0 of 18
F59A/S63D/R100K	Ctrl	0.77 0.33 0.96 0.41 1.07 1.17; 0.20 0.18 0.75 0.52 0.79 1.02; 0.87 1.34 0.45 1.12 0.94 1.35; 0.91 1.18 1.03 0.68 1.03 0.74	0.83	2 of 72 (2.03)
G26R/T28N/N30K/S31E/R100Q	Ctrl	nd nd nd nd nd 2.15	2.15	2 of 18 (2.22)
R56V/T58K/G61S	Ctrl	0.80 0.62 0.59 0.78 0.59 0.34	0.62	0 of 18
A101V/F105P/D106F/S107V	Ctrl	nd nd nd nd nd nd	nd	0 of 18

Some sequences occur more than once in the pool; their replicates are listed entry by entry, parted by semicolons. As a blank, each scFv also met three strains without target: over all heavy chain designs, 1% of these pairings were detected, typically at 2.08 and seldom below 0.84. For each scFv, signals with the empty controls are counted beside the result, with their mean in brackets. In the paper, a design with two or fewer of six values counts as a poor binder. Values of this round are not directly comparable with the first-round values of the same sequences. Of ten entries with the parent sequence, four were seen in most replicates (averages 0.34 to 2.37), three in one and three in none, so single entries are noisy.